The target of the assay is T1, Histone acetyltransferase KAT8 (Homo sapiens) (UniProt Q9H7Z6).
T1 sequence (whole entry): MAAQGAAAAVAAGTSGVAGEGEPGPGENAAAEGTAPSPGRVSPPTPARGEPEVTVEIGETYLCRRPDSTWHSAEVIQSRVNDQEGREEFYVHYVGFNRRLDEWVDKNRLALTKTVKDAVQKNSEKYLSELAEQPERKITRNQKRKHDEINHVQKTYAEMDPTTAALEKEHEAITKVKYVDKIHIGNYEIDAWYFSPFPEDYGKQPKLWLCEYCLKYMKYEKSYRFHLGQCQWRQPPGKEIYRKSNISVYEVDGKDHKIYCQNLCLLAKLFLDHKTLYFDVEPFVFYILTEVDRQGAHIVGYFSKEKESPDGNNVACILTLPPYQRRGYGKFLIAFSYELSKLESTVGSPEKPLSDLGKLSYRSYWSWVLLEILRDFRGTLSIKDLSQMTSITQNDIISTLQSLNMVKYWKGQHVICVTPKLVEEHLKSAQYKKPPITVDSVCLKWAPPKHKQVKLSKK
Description: Inhibition of recombinant N-terminal His6-tagged KAT8 (unknown origin) expressed in Escherichia Coli BL21 DE3 cells assessed as reduction of Co A level using histone H4 substrate at 400 uM after 15 mins by CPM fluorescence assay.

Turning to `CCCCCCCCCCCCCCCc1cccc(O)c1C(=O)O`, the inhibition was > 50%.

As usually defined, the inhibition is the change of the read-out against control, counted positive when it falls.
